In US20260144805A1, “CANNABIDIOL COMPOSITIONS FOR USE IN THE TREATMENT OF NEURODEGENERATIVE AND NEUROLOGICAL DISORDERS” (JAZZ PHARMACEUTICALS RESEARCH UK LIMITED, priority 2022, published 2026):

Tested on: rat model of essential tremor
Test: Harmaline rat model of essential tremor, tremor plate: motion power percentage, tremor index, number of tremors, time in tremor, tremor length (Example 4)
Type: in vivo
Design: key: ns = not significant; *, **, ***, **** = statistical significance at p < 0.05, 0.01, 0.001, 0.0001 respectively; *, **, ***, **** = statistical significance at p < 0.05, 0.01, 0.001, 0.0001 respectively; *, **, ***, **** = statistical significance at p < 0.05, 0.01, 0.001, 0.0001 respectively; *, **, ***, **** = statistical significance at p < 0.05, 0.01, 0.001, 0.0001 respectively
Conditions: I.P.
From the text: The following study was designed to assess the drug substance (DS) efficacy in the rat model of essential tremor. Synthetic CBD (sCBD I.P.) and DS I.P. and DS. P.O and compared observing tremor score, motion power percentage (MPP), tremor index (TI), number of tremors, total time spent in tremor, and average tremor length.
Animals (254 male Sprague Dawley rats from Charles River UK, approximately aged 6-7 weeks, weight range 222-361 g) were housed in groups of 2-4, in standard caging with free access to food and water on a 12 h/12 h light/dark cycle from arrival (lights on at 7:00 AM) and were habituated to the tremor plate apparatus the day before the day of the experiment (2×5 min sessions 20 minutes apart). On the test day, the following treatments were administered: • At T=−100 min • 6, 12, 20 or 30 mg/kg Drug Substance (DS of Example 1) or vehicle via p.o. • 91.11 mg/kg sCBD via i.p. • 100 mg/kg Drug Substance (DS of Example 1) via i.p. • At T-=40 min: • Vehicle only, 9.11 mg/kg, 27.33 mg/kg, or 54.67 mg/kg sCBD via i.p. • Vehicle only, 10 mg/kg, 30 mg/kg, or 60 mg/kg Drub Substance (DS of Example 1) via i.p. • Propranolol 20 mg/kg was given at T=−30 min and Harmaline was given at T=0 for all studies.
The results are summarized in Tables J-M. All comparisons were made to the harmaline+vehicle group within each study.

## C=C(C)[C@@H]1CCC(C)=C[C@H]1c1c(O)cc(CCCCC)cc1O [sCBD, 2-[(1R,6R)-3-Methyl-6-(1-methylethenyl)-2-cyclohexen-1-yl]-5-pentyl-1,3-benzenediol]
Dose 9.1 mg/kg, 20 min
  Tremor Index, significance vs harmaline + vehicle: ns
Dose 9.1 mg/kg, 40 min
  Tremor Index, significance vs harmaline + vehicle: ns
Dose 9.1 mg/kg, 60 min
  Tremor Index, significance vs harmaline + vehicle: ns
Dose 27.3 mg/kg, 20 min
  Tremor Index, significance vs harmaline + vehicle: ns
Dose 27.3 mg/kg, 40 min
  Tremor Index, significance vs harmaline + vehicle: ns
Dose 27.3 mg/kg, 60 min
  Tremor Index, significance vs harmaline + vehicle: ns
Dose 54.7 mg/kg, 20 min
  Tremor Index, significance vs harmaline + vehicle: ns
Dose 54.7 mg/kg, 40 min
  Tremor Index, significance vs harmaline + vehicle: ns
Dose 54.7 mg/kg, 60 min
  Tremor Index, significance vs harmaline + vehicle: ns
Dose 91.1 mg/kg, 20 min
  Tremor Index, significance vs harmaline + vehicle: ns
Dose 91.1 mg/kg, 40 min
  Tremor Index, significance vs harmaline + vehicle: ns
Dose 91.1 mg/kg, 60 min
  Tremor Index, significance vs harmaline + vehicle: * (*, **, ***, **** = statistical significance at p < 0.05, 0.01, 0.001, 0.0001 respectively)
